Test results taken from patent US9643930B2, “Substituted indazole derivatives as in vitro MAO-B inhibitors” (“NTZ LAB” LTD., priority 2013, dated 2017).

Chains of the proteins cited; added tags and fusions are not shown.
UniProt P21397, whole entry: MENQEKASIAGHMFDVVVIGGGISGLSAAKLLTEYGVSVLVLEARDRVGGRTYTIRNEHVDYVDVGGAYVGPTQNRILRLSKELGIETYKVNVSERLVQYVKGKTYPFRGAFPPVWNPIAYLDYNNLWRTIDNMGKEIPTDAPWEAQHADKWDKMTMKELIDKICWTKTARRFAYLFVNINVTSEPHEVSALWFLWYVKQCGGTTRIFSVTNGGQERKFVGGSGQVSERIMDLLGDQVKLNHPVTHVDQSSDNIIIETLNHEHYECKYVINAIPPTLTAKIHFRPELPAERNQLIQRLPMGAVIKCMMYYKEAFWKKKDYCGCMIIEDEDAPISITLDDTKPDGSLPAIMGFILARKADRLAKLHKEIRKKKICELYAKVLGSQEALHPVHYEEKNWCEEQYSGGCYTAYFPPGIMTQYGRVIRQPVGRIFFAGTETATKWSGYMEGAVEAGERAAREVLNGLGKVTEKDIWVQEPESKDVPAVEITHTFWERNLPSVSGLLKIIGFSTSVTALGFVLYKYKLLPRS

Biological target: human MAO-A (Homo sapiens, UniProt P21397)
Test: Human MAO-A assay (recombinant enzyme, Amplex Red fluorescence)

Cn1ncc2cc(C(=O)Nc3ccc(F)c(Cl)c3)ccc21 [Example 17, N-(3-chloro-4-fluorophenyl)-1-methyl-1H-indazole-5-carboxamide]
IC50: > 10 µM
inhibition at 10 µM (read-out: human MAO-A % inhibition at 10 μM): 53%
